“And” between values parts separate entries of the source, which are not always exact repeats. Equal values may be shown once. Only a part is listed here, and it is no random draw. The source made the active and inactive calls. No stated cut-off is given here; in the data, active means inhibition above about 22% (passing the limit was not always enough); inactive means the rest.

Sequences of proteins named here, by UniProt entry; tags and fusion partners are left off.
UniProt P35372, whole entry, looked up: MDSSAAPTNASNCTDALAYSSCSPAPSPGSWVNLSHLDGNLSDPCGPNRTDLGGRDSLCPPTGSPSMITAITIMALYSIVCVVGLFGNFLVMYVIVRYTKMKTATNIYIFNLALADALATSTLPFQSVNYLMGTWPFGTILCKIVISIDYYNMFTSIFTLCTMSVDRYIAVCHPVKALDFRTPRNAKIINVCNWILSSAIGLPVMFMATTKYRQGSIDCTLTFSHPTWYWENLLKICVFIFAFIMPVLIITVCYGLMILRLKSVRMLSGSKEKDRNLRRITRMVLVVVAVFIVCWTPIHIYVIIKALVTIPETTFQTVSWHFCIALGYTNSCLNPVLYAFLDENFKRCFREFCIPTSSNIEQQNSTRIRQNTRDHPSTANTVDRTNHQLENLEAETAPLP
UniProt P41143, whole entry, looked up: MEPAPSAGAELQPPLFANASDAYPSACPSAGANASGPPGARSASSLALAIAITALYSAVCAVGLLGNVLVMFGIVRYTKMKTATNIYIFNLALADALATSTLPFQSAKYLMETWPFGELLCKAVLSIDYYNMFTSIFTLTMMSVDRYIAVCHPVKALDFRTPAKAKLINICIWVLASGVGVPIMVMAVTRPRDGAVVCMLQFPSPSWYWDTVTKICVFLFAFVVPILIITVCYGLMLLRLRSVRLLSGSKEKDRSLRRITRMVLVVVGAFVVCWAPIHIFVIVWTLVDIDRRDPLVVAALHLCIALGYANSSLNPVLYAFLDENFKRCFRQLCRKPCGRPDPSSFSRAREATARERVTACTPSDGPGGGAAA

The experiment deals with Mu-type opioid receptor (Homo sapiens) + Delta-type opioid receptor (Homo sapiens) (UniProt P35372+P41143). The experiment in a line: OPRM1-OPRD1 heterodimer inverse agonism – cell-based, luminescence, primary screen (AID 504357).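 Further: 0% = cells with DMSO and 100% = wells without cells with DMSO.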 As to conditions: cell-based MOR-DOR heterodimer luminescence, at 9.3 µM, stronger effect = higher value.
For the compound `Cc1cc(=O)[nH]c(N[N+](=O)[O-])n1`, the inhibition was inactive: -3.48%.

On to `Cn1c(=O)c2c(nc(Cl)n2CC(=O)N2CCCCC2)n(C)c1=O`, for which the inhibition was inactive: 11.4%.

Consider `O=C1C2CCCCC2C(=O)N1c1ccc(NC2CCN(Cc3ccccc3)CC2)c([N+](=O)[O-])c1` (configuration not stated), for which the inhibition was inactive: 5.52%.

For `O=C(OC1CN2CCC1CC2)C12CC3CC(CC(C3)C1)C2` (configuration not stated), the inhibition is inactive: 17%.

Turning to `CC(C)(C)NC(=O)Cn1c(SCC(=O)NC2CC2)nc2ccccc21`, the inhibition is inactive: 18.5%.

Regarding `CSc1nc(N)nc2c1ncn2CC(=O)NCc1ccc2c(c1)OCO2`, the inhibition is inactive: 17%.

With `Cc1cnc(NC(=O)Cn2cnc3c2c(=O)n(C)c(=O)n3C)s1`, the inhibition is inactive: 14.3%.

`O=C(O)CCc1nn2c3ccccc3n(CCN3CCCCC3)c2nc1=O`: the inhibition was inactive: -6.37%.

On to `Nc1nonc1-c1nc2ccccc2n1CC(=O)NC1CCCC1`, for which the inhibition was inactive: 11.1%.

With `Cc1ccc(-c2csc(NCCn3c(-c4ccncc4)nc4cc(C(F)(F)F)ccc43)n2)cc1`, the inhibition was inactive: 9.85%.

Regarding `Cc1ccc(Cn2nnnc2CN2CCC(n3nnc4cc(C(F)(F)F)ccc43)CC2)cc1`, the inhibition was inactive: -44.6%.

Take `Cc1ccc2c(c1)C1CN(C)CCC1N2C(=O)c1ccco1` (configuration not stated): the inhibition was inactive: 12.8%.

With `Cc1ccc(S(=O)(=O)Nc2ccc(Cl)cc2)cc1NC(=O)Cn1cnc2c1c(=O)n(C)c(=O)n2C`, the inhibition is inactive: 1.12%.

Consider `CC(C)NC(=O)CSc1nc2ccccc2n1CC(=O)N(C(C)C)C(C)C`, for which the inhibition is inactive: -0.28%.

For the compound `O=C(Cn1c(NCCO)nc2ccccc21)Nc1cccc(S(=O)(=O)N2CCCC2)c1`, the inhibition was inactive: 11.8%.

Take `CCN(CC)c1ccc(CNc2nc3ccccc3n2CCN2CCOCC2)cc1`: the inhibition is inactive: 13.7%.

For the compound `CC(C)[Si]1(C(C)C)OCC2OC(n3cnc4c(N)ncnc43)C(N)C2O[Si](C(C)C)(C(C)C)O1` (configuration not stated), the inhibition is inactive: -1.52%.

For the compound `COC(=O)[C@H](Cc1ccc(O)cc1)NC(=O)Cn1cnc2c(SC)nc(N)nc21`, the inhibition was inactive: -0.79%.

Turning to `NC(=O)CC(NC(=O)c1cccc(Br)c1)c1ccc(NC2CCN(Cc3ccccc3)CC2)c([N+](=O)[O-])c1` (configuration not stated), the inhibition is inactive: 8.12%.

With `N=c1n(CCN2CCCCC2)c2ccccc2n1CC(O)c1ccc(Cl)c(Cl)c1` (configuration not stated), the inhibition is inactive: -30.5%.

Turning to `CN(C)CCn1c(=N)n(CC(O)c2ccc(Cl)c(Cl)c2)c2ccccc21` (configuration not stated), the inhibition was inactive: -40.2%.

Turning to `Cc1ccc(CNC(=O)Cn2cnc3c(OCc4ccccc4)ncnc32)o1`, the inhibition is inactive: 14%.

On to `CN(c1ccccc1)S(=O)(=O)c1cccc(NC(=O)Cn2cnc3c2c(=O)n(C)c(=O)n3C)c1`, for which the inhibition was inactive: -0.08%.

Turning to `COc1cc(NC(=O)[C@@H](NC(=O)N2CCn3c2nc2ccccc23)C(C)C)cc(OC)c1`, the inhibition is inactive: 14.4%.

Take `Nc1nonc1-c1nc2ccccc2n1CC(=O)N1CCN(c2ccc(F)cc2)CC1`: the inhibition was inactive: -25.7%.

As to `Cc1cc2ncn(C3CC(=O)N(Cc4ccccc4)C3=O)c2cc1C` (configuration not stated), the inhibition is inactive: -9.65%.

Turning to `COc1cc(NC(=O)Cn2cnc3c(NCc4ccccc4)ncnc32)cc(OC)c1OC`, the inhibition is inactive: 10.9%.

For the compound `O=[N+]([O-])c1cc(Oc2ccc([N+](=O)[O-])cc2C(F)(F)F)cc([N+](=O)[O-])c1`, the inhibition was inactive: -97.4%.

Turning to `O=C(Cn1cnc2c(OCc3ccccc3)ncnc21)NCc1ccccn1`, the inhibition is inactive: 3.97%.

Regarding `Cn1c(=O)c2ncn(CC(=O)Nc3cccc(-c4nc5ccccc5s4)c3)c2n(C)c1=O`, the inhibition was inactive: 5.64%.

For `c1ccc2c(c1)nc1n2CCN1CCNC1CCCCC1`, the inhibition is inactive: 16.8%.

In the case of `CN(C)C(=O)Cn1c(SCC(=O)NCc2ccc3c(c2)OCO3)nc2ccccc21`, the inhibition is inactive: 4.66%.

Regarding `COc1ccc(N/C(=N/P(=O)(N2CCOCC2)N2CCOCC2)N2CCOCC2)cc1`, the inhibition was inactive: 15.1%.

Turning to `CCN(CC)S(=O)(=O)c1ccc(OC)c(NC(=O)Cn2cnc3c2c(=O)n(C)c(=O)n3C)c1`, the inhibition was inactive: 13.5%.

As for `Brc1ccc(CNc2nc3ccccc3n2CCN2CCCCC2)cc1`, the inhibition is inactive: -15.3%.

Consider `COc1ccc(/C=N/NC(=O)Cn2c(Cc3ccc(OC)c(OC)c3)nc3ccccc32)cc1`, for which the inhibition is inactive: -0.54%.

As to `COC(=O)[C@H](CCSC)NC(=O)Cn1cnc2c(NCc3ccccc3)ncnc21`, the inhibition is inactive: 9.69%.

On to `Cc1ccc(OP(=O)(Nc2ccc([N+](=O)[O-])cn2)Oc2ccc(C)cc2)cc1`, for which the inhibition is inactive: 11.6%.

For `Fc1ccc2c(c1)nnn2C1CCN(Cc2ccccc2)CC1`, the inhibition was inactive: -1.84%.

Take `CN(C)CCn1cnc2c1c(=O)n(C)c(=O)n2C`: the inhibition was inactive: 8.27%.

For `CCOC(=O)Cn1c(=O)c2c(nc3n2CCN3Cc2ccccc2)n(C)c1=O`, the inhibition is inactive: 5.44%.

Take `Cn1c(=O)c2c(nc(N3CCOCC3)n2CCNC2=NCCC2)n(C)c1=O`: the inhibition was inactive: 18.2%.

For the compound `O=C(Cn1c(C(F)(F)F)nc2ccccc21)N/N=C/c1ccco1`, the inhibition is inactive: 10.8%.

`COc1ccc(S(=O)(=O)N2CCCCC2)cc1NC(=O)Cn1cnc2c1c(=O)n(C)c(=O)n2C`: the inhibition was inactive: 11.1%.

For the compound `COc1ccc(CCNC(=O)[C@H](CCSC)NC(=O)N2CCn3c2nc2ccccc23)cc1OC`, the inhibition is inactive: 11.5%.

On to `CSc1nc(N)nc2c1ncn2CC(=O)N[C@H](C)c1cccc2ccccc12`, for which the inhibition was inactive: 3.45%.

On to `Cc1ccc2nc3c(c(C)c2c1)CC(C(Cl)Cl)S3` (configuration not stated), for which the inhibition was inactive: 5.99%.

Regarding `CN1CCC(N(C)c2nc(-c3ccc([N+](=O)[O-])cc3)nc3ccccc23)CC1`, the inhibition is inactive: -26.3%.

In the case of `O=C(Nc1ccc(F)cc1)N1CCn2c(nc3ccccc32)C1`, the inhibition is inactive: 2.72%.

As for `C[C@H](NC(=O)N1CCn2c1nc1ccccc12)C(=O)NCc1ccco1`, the inhibition is inactive: 3.38%.

As for `CC(C)CN(C(=O)Cn1c(Cl)nc2c1c(=O)n(C)c(=O)n2C)C1CCS(=O)(=O)C1` (configuration not stated), the inhibition was inactive: 13.4%.

In the case of `COc1ccc(NC(=O)Cn2c(NCC(C)O)nc3ccccc32)cc1Cl` (configuration not stated), the inhibition is inactive: 18.9%.

Regarding `O=C(Cn1c2[n+](c3ccc(C(F)(F)F)cc31)CCCCC2)Nc1ccc(Br)cc1`, the inhibition was inactive: 1.14%.

For the compound `CC(O)c1nc2ccccc2n1CC(=O)Nc1ccc(F)cc1Cl` (configuration not stated), the inhibition is inactive: 3.26%.

As to `N=c1n(CCCOc2ccc(Br)cc2)c2ccccc2n1CC(N)=O`, the inhibition is inactive: 8.88%.

As to `Cc1ccc2c(c1)C1CN(C)CCC1N2S(=O)(=O)c1ccccc1F` (configuration not stated), the inhibition is inactive: 7.75%.

In the case of `O=C(NCc1ccccc1)N1CCn2c(nc3ccccc32)C1`, the inhibition is inactive: 11.4%.

As to `CCN(CC)CCn1c(NCc2ccc3c(c2)OCO3)nc2ccccc21`, the inhibition was inactive: -0.23%.

For `Cc1ccccc1NC(=O)Cn1c(=O)n(C)c2ccccc21`, the inhibition was inactive: -3.66%.

Consider `Cc1ccccc1OCC(O)Cn1c(=N)n(CCN2CCOCC2)c2ccccc21` (configuration not stated), for which the inhibition was inactive: 3.19% and inactive: 5.27%.

Regarding `O=C1Nc2ccccc2C12Nc1ccccc1-c1nc3ccccc3n12` (configuration not stated), the inhibition was inactive: 8.8%.

For the compound `CC(NC(=O)[C@H](C)NC(=O)N1CCn2c1nc1ccccc12)c1ccccc1` (some centres not stated), the inhibition was inactive: 15%.

With `O=[N+]([O-])c1ccc(-c2cc([N+](=O)[O-])c(O)c([N+](=O)[O-])c2)cc1`, the inhibition was inactive: 14.4%.

As to `Cc1ccc(S(=O)(=O)Nc2ccc3c(c2)nc2n3CCN(Cc3ccccc3)C2)cc1`, the inhibition is inactive: 0.43%.

Take `Cn1c(=O)c2c(ncn2CC(=O)N/N=C/C(Br)=C/c2ccccc2)n(C)c1=O`: the inhibition is inactive: 3.92%.

Consider `Cc1ccc(SCc2nc3ccccc3n2CC(=O)Nc2c(C)cccc2C)cc1`, for which the inhibition was inactive: -7.94%.

Regarding `CN1CCN(c2nc3c(c(=O)[nH]c(=O)n3C)n2CC(N)=O)CC1`, the inhibition was inactive: 18.6%.

Regarding `CSc1nc2ccccc2n1CC(=O)Nc1c(C)cccc1C`, the inhibition is inactive: -2.17%.

`O=[As](O)(c1ccc(O)cc1)c1ccccc1O`: the inhibition was inactive: 10%.

For `COc1ccc(NC(=O)N2CCn3c2nc2ccccc23)cc1`, the inhibition was inactive: -1.15%.

As for `C[As](=O)(O)c1cccc(C(=O)O)c1`, the inhibition is inactive: 17.9%.

Consider `Cn1c(=O)c2c(ncn2CC(=O)Nc2nc(-c3ccccc3Cl)cs2)n(C)c1=O`, for which the inhibition is inactive: -6.5%.

Take `O=C(Cn1c2[n+](c3ccc(C(F)(F)F)cc31)CCCCC2)Nc1c(F)cccc1F`: the inhibition was inactive: -7.77%.

As to `COC(=O)[C@H](CC(C)C)NC(=O)Cn1cnc2c(SC)nc(N)nc21`, the inhibition is inactive: 10.2%.

Take `CC1c2nc3ccccc3n2C(CC(=O)NCCCN2CCOCC2)C(=O)N1Cc1ccccc1` (configuration not stated): the inhibition is inactive: 8.49%.

For the compound `COc1ccc(CCNC(=O)[C@@H](NC(=O)N2CCn3c2nc2ccccc23)C(C)C)cc1OC`, the inhibition is inactive: 5.58%.

Turning to `O=[N+]([O-])c1cc([N+](=O)[O-])c(-c2ccn[nH]2)s1`, the inhibition is inactive: -53.3%.

Turning to `O=C(Cn1c(-c2ccccn2)nc2ccccc21)NCCN1CCOCC1`, the inhibition is inactive: -1.17%.

With `O=C(Cn1cnc2c(NCc3ccccc3)ncnc21)NCCCc1ccccc1`, the inhibition is inactive: 12.2%.

As to `COc1cc(NC(=O)Cn2cnc3c(OCc4ccccc4)ncnc32)cc(OC)c1OC`, the inhibition is inactive: 2.96%.

Take `O=C(CCNC(=O)N1CCn2c1nc1ccccc12)NCc1ccc(F)cc1`: the inhibition is inactive: 5.43%.

Take `O=C(Nc1nc2ccccc2n1CCN1CCOCC1)c1cn(-c2ccccc2)nc1-c1ccccc1`: the inhibition was inactive: 10.5%.

As for `O=C(OC1CN2CCC1CC2)c1cccc2[nH]cnc12` (configuration not stated), the inhibition is inactive: 7.15%.

For `C=C(C)Cn1c(=O)c2c(nc3n2CCN3c2cccc(Cl)c2C)n(C)c1=O`, the inhibition is inactive: 4.96%.

Turning to `CCN(CC)C(=S)SC(NC=O)C(Cl)(Cl)Cl` (configuration not stated), the inhibition was inactive: -6.3%.

As for `C[C@H](NC(=O)N1CCn2c1nc1ccccc12)C(=O)NC1CC1`, the inhibition is inactive: 5.86%.

Consider `Cc1ccc(Cn2nnnc2CN2CCC(n3nnc4cc(C)ccc43)CC2)cc1`, for which the inhibition is inactive: -29.5%.
